# Laboratory results as given in ChEMBL document CHEMBL2086338, “Design, synthesis, and evaluation of 2-substituted ethenesulfonic acid ester derivatives as protein tyrosine phosphatase 1B inhibitors” (Eur J Med Chem, 2012).
# Molecular target: T1, Tyrosine-protein phosphatase non-receptor type 1 (Homo sapiens, UniProt P18031)
# T1 sequence (P18031 whole entry): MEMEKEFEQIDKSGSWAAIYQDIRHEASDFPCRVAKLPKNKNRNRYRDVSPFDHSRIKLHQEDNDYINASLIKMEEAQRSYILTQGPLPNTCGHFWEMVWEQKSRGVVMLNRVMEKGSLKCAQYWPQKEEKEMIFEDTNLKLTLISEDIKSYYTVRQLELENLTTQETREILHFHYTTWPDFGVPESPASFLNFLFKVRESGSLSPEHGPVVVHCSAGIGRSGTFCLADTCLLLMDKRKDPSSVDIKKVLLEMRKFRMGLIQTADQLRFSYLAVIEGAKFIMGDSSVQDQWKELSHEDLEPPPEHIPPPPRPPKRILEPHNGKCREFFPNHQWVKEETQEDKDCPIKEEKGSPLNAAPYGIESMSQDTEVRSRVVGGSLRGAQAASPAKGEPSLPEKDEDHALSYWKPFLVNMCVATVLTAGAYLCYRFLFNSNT
# Assay: Inhibition of human recombinant PTP1B assessed as inhibition of hydrolysis of […] after 10 mins by spectrophotometry
compound,measurement,value
CNC(=O)C1Cc2ccc(NS(=O)(=O)O)cc2CN1C(=O)CCc1cccc(NS(=O)(=O)O)c1 (stereo unspecified),IC50,4.8 µM
